Tests used:
[1] = test system: pancreatic amylase secretion; conditions: cited from earlier work
calcitonin receptor = target: T1, calcitonin receptor (Rattus norvegicus, UniProt P32214); format: binding; conditions: read-out: IC50, CT RBA (C1A)
T1 construct: host or cells: general text: 'CHO cells or T47D cells'
T1 sequence (P32214 25-479 isoform P32214-2 limits assumed): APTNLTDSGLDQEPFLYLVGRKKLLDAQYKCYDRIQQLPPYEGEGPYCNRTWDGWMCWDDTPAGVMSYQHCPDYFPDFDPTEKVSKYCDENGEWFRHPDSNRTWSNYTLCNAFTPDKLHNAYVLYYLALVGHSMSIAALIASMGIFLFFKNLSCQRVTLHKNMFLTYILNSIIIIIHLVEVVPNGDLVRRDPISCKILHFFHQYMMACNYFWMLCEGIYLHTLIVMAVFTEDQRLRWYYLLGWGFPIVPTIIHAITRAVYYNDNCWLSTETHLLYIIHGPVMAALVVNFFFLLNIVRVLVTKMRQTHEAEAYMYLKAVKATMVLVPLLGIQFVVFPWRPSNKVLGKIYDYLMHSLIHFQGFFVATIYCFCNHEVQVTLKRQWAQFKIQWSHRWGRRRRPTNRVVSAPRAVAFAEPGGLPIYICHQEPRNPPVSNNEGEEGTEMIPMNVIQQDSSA

Row | Substance | potency in stimulating pancreatic amylase secretion relative to unsulfated CCK-8 or CCK-4 [1] | IC50 (calcitonin receptor) [nM]
1 | DY(SO3) MGWMDF-NH2 [CCK-8] | approximately 1000 fold | 
2 | [Ser117, dLeu119]leptin(116-122)-Amylin(1-7)-[^11,18Arg]sCT(8-27) -Amylin(33-37) [Compound 16] |  | 0.063

Source: US8076288B2 (priority 2004, dated 2011)
